The values that follow are results of earlier work, collected in US7763418B2, “Detection of Rho proteins” (Cytoskeleton, Inc., priority 2005, dated 2010).

In this data set the target is Ras. As to conditions: read-out: published affinity Ras:Raf1; cited from earlier work.

As to “Raf1: partner of Ras in the published Ras:Raf1 affinity”, the Kd is roughly 20 nM.
